{"source": "paper PMC3107989", "assay_in_all_cases": "purified protein", "key": {"O=c1cc[nH]c(=O)o1": {"test_system": "O=c1cc[nH]c(=O)o1", "conditions": "Zn2+; pH 8.5; 30.0 °C"}, "Nc1cc[nH]c(=O)n1": {"test_system": "Nc1cc[nH]c(=O)n1", "conditions": "pH 8.5, 30.0 °C"}, "purified protein [1]": {"substrate": "CN1CC(=O)NC1=N", "conditions": "Zn2+; pH 8.5; 30.0 °C"}, "purified protein [2]": {"substrate": "Nc1cc[nH]c(=O)n1", "conditions": "Zn2+ active site; Gln-156 facilitates the binding of cytosine; pH 8.5; 30.0 °C"}, "purified protein [3]": {"substrate": "Nc1nccc(O)n1", "conditions": "Zn2+; pH 8.5; 30.0 °C"}}}
{"molecule": "Cytosine deaminase (CDA) (Escherichia coli K-12)", "values": [{"measurement": "Km", "setting": "O=c1cc[nH]c(=O)o1", "result": "4100 ± 300", "unit": "µM"}, {"measurement": "kcat", "setting": "O=c1cc[nH]c(=O)o1", "result": 2.3, "unit": "s⁻¹"}, {"measurement": "kcat/Km", "setting": "O=c1cc[nH]c(=O)o1", "result": 560, "unit": "M⁻¹ s⁻¹"}]}
{"molecule": "Cytosine deaminase (CDA) (Escherichia coli K-12; D314N)", "values": [{"measurement": "Km", "setting": "Nc1cc[nH]c(=O)n1; Zn2+", "result": "1900 ± 200", "unit": "µM"}, {"measurement": "kcat", "setting": "Nc1cc[nH]c(=O)n1; Zn2+", "result": 0.0075, "unit": "s⁻¹"}, {"measurement": "kcat/Km", "setting": "Nc1cc[nH]c(=O)n1; Zn2+", "result": 4, "unit": "M⁻¹ s⁻¹"}]}
{"molecule": "Cytosine deaminase (CDA) (Escherichia coli K-12; E218A)", "values": [{"measurement": "Km", "setting": "O=c1cc[nH]c(=O)o1", "result": "850 ± 40", "unit": "µM"}, {"measurement": "kcat", "setting": "O=c1cc[nH]c(=O)o1", "result": 0.18, "unit": "s⁻¹"}, {"measurement": "kcat/Km", "setting": "O=c1cc[nH]c(=O)o1", "result": 210, "unit": "M⁻¹ s⁻¹"}]}
{"molecule": "Cytosine deaminase (CDA) (Escherichia coli K-12; H247Q)", "values": [{"measurement": "Km", "setting": "Nc1cc[nH]c(=O)n1; Zn2+/Fe2+ ([…] Zn, […] Fe)", "result": "250 ± 30", "unit": "µM"}, {"measurement": "kcat", "setting": "Nc1cc[nH]c(=O)n1; Zn2+/Fe2+ ([…] Zn, […] Fe)", "result": 0.18, "unit": "s⁻¹"}, {"measurement": "kcat/Km", "setting": "Nc1cc[nH]c(=O)n1; Zn2+/Fe2+ ([…] Zn, […] Fe)", "result": 720, "unit": "M⁻¹ s⁻¹"}]}
{"molecule": "Cytosine deaminase (CDA) (Escherichia coli K-12) (protein) SNNALQTIINARLPGEEGLWQIHLQDGKISAIDAQSGVMPITENSLDAEQGLVIPPFVEPHIHLDTTQTAGQPNWNQSGTLFEGIERWAERKALLTHDDVKQRAWQTLKWQIANGIQHVRTHVDVSDATLTALKAMLEVKQEVAPWIDLQIVAFPQEGILSYPNGEALLEEALRLGADVVGAIPHFEFTREYGVESLHKTFALAQKYDRLIDVHCDEIDDEQSRFVETVAALAHHEGMGARVTASHTTAMHSYNGAYTSRLFRLLKMSGINFVANPLVNIHLQGRFDTYPKRRGITRVKEMLESGINVCFGHDDVFDPWYPLGTANMLQVLHMGLHVCQLMGYGQINDGLNLITHHSARTLNLQDYGIAAGNSANLIILPAENGFDALRRQVPVRYSVRGGKVIASTQPAQTTVYLEQPEAIDYKR", "values": [{"measurement": "Km", "setting": "purified protein [1]", "result": "25000 ± 4000", "unit": "µM"}, {"measurement": "kcat", "setting": "purified protein [1]", "result": 5.6, "unit": "s⁻¹"}, {"measurement": "kcat/Km", "setting": "purified protein [1]", "result": 220, "unit": "M⁻¹ s⁻¹"}, {"measurement": "Km", "setting": "purified protein [2]", "result": "970 ± 30", "unit": "µM"}, {"measurement": "kcat", "setting": "purified protein [2]", "result": 132, "unit": "s⁻¹"}, {"measurement": "kcat/Km", "setting": "purified protein [2]", "result": 140000, "unit": "M⁻¹ s⁻¹"}, {"measurement": "Km", "setting": "purified protein [3]", "result": "460 ± 40", "unit": "µM"}, {"measurement": "kcat", "setting": "purified protein [3]", "result": 5.1, "unit": "s⁻¹"}, {"measurement": "kcat/Km", "setting": "purified protein [3]", "result": 11000, "unit": "M⁻¹ s⁻¹"}]}
